Values of other authors in article PMC5217177 (Journal of natural products, 2016).

System: three distinct human tumor cell lines
Settings: cited from earlier work

## actinomycin Y5
  cytotoxicity: did not have detectable cytotoxicity
Three distinct human tumor cell lines
  fold less potent than actinomycin D (cytotoxicity): > 5000 fold
